The values that follow come from patent US9624188B2, “IDO inhibitors” (BRISTOL-MYERS SQUIBB COMPANY, priority 2013, dated 2017).

Amino acid sequences for entries named in this document (tags omitted).
UniProt P14902, whole entry: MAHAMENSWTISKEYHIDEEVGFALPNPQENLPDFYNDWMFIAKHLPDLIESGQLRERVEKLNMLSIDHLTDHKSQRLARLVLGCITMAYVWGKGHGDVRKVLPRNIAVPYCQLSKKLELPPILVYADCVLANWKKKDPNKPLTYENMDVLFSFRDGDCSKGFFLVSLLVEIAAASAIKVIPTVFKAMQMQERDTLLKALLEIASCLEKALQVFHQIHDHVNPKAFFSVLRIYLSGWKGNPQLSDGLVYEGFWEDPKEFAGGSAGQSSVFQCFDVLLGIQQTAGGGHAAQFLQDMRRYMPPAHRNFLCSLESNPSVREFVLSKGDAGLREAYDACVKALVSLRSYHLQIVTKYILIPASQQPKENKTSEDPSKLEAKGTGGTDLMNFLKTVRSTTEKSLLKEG

The target of the test is Human IDO1 (Homo sapiens (Human), UniProt P14902). Kind of test: IDO Kynurenine Assay with Human IDO1/HEK293 Cells. In kind it is cell-based. The note with it: 20 hours incubation, kynurenine detected with Ehrlich reagent, absorbance at 490 nm, read-out: HEK Human IDO-1 IC50. On the procedure: IDO Kynurenine Assay with Human IDO1/HEK293 Cells
Human IDO1/HEK293 cells were seeded at 10,000 cells per 50 uL per well with RPMI/phenol red free media contains 10% FBS in a 384-well black wall clear bottom tissue culture plate (Matrix Technologies LLC) 125 nL of certain concentration of compound was then added to each well using ECHO liquid handling systems. The cells were incubated for 20 hours in 37° C. incubator with 5% CO2.
The compound treatments were stopped by adding Trichloroacetic Acid (Sigma-Aldrich) to a final concentration at 0.2%. The cell plate was further incubated at 50° C. for 30 minute. The equal volume supernatant (20 uL) and 0.2% (w/v) Ehrlich reagent (4-dimethylaminobenzaldehyde, Sigma-Aldrich) in glacial acetic acid were mixed in a new clear bottom 384-well plate. This plate was then incubated at room temperature for 30 minute. The absorbance at 490 nm was measured on Envision plate reader.
Compound IC50 values were calculated using the counts of 500 nM of a reference standard treatment as one hundred percent inhibition, and counts of no compound but DMSO treatment as zero percent inhibition.

pIC50: −log10 of the molar value.

Broadly, the pIC50 is the negative decadic logarithm of the IC50, by convention in mol/L. Take `CC(C)CN(CC(C)C)c1ccc(C(C)CC(=O)O)cc1NC(=O)Nc1cc(C(F)(F)F)no1` (racemic) [Example 46, 3-(4-(diisobutylamino)-3-(3-(3-(trifluoromethyl)isoxazol-5-yl)ureido)phenyl)butanoic acid]: the pIC50 was 8.15.
